System: human lymphoblastoid TK6 cells

MicroFlow summary classification (MN induction): +
SMILES: CCN(CC)c1cccc(O)c1 [NSACB 4, 3-diethylaminophenol]
MicroFlow %MN response (text): concentration-response pattern at the lowest concentrations before decreasing or plateauing at the higher concentrations
